Literature values, collected in patent publication US9783495B2, “Treatment for lipodystrophy” (Cadila Healthcare Limited, priority 2011, dated 2017).

Test system: HIV-infected men with central obesity and low testosterone levels
Conditions: transdermal gel 10 g daily, 24 weeks; vs placebo; cited from earlier work

C[C@]12CC[C@H]3[C@@H](CCC4=CC(=O)CC[C@@]43C)[C@@H]1CC[C@@H]2O [testosterone]
changes in lipid levels, fasting blood glucose levels, insulin levels, or insulin resistance: no statistically significant differences
